Assay: Water solubility of the isolated product
Format: physicochemical
Settings: qualitative

Row | Substance | solubility in water
1 | fructose (R)-3-hydroxybutyrate ester [KTX 0311] | water-soluble
2 | sorbitol 3-hydroxybutyrate tri-ester [KTX 0313] | water-soluble
3 | arabinose (R)-3-hydroxybutyrate ester [KTX 0312] | water-soluble

From patent US20070225252A1, “Ketogenic Saccharides” (priority 2004, published 2007)
